From ChEMBL document CHEMBL4346723, “Targeting tropomyosin receptor kinase for cancer therapy” (Eur J Med Chem, 2019)

By UniProt entry, the sequences of proteins in these tests, tags left out. Where a name states a change or a piece, a line headed by the entry shows the natural chain unless it says otherwise.
UniProt P04629: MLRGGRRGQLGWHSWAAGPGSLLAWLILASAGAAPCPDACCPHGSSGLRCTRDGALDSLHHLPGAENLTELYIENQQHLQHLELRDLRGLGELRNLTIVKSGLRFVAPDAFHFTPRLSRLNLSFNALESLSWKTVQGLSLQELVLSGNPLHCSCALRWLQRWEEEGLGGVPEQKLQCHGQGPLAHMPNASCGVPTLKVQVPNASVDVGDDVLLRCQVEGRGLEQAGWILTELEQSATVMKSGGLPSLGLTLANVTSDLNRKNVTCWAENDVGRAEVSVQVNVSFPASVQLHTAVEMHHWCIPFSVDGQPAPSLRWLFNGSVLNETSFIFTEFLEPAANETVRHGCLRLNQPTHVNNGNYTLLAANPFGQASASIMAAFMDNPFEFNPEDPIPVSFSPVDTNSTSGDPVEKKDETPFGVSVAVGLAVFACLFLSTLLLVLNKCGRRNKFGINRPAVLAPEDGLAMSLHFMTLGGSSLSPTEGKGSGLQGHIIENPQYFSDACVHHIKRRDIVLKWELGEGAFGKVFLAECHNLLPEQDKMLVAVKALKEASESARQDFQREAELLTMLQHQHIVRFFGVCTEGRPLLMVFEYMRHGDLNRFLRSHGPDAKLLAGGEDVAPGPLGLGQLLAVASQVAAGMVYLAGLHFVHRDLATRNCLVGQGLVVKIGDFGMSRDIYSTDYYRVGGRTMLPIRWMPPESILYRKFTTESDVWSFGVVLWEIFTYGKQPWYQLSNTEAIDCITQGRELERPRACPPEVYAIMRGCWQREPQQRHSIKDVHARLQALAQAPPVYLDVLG
UniProt Q16620, whole entry, looked up: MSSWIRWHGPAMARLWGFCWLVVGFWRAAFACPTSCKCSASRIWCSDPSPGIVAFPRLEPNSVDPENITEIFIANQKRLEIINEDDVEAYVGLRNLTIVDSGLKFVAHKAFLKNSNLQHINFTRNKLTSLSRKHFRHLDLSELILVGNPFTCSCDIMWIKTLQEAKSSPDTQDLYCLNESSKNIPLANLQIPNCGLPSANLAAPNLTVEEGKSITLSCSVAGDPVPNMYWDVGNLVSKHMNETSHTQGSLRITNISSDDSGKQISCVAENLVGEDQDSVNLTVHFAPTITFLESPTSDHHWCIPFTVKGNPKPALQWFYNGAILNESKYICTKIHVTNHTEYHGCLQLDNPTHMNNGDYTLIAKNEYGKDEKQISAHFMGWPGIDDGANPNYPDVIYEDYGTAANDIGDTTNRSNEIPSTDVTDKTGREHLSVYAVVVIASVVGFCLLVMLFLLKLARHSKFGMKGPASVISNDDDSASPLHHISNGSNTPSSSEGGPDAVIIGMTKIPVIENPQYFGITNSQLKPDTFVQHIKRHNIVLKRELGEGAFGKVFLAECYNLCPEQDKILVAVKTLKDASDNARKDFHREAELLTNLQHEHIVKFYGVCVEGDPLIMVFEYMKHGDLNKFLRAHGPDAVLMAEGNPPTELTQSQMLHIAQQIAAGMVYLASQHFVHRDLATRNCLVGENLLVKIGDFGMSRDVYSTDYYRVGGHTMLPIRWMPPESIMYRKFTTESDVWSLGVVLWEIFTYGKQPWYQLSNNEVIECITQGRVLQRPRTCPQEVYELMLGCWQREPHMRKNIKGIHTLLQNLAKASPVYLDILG
UniProt Q16288, whole entry, looked up: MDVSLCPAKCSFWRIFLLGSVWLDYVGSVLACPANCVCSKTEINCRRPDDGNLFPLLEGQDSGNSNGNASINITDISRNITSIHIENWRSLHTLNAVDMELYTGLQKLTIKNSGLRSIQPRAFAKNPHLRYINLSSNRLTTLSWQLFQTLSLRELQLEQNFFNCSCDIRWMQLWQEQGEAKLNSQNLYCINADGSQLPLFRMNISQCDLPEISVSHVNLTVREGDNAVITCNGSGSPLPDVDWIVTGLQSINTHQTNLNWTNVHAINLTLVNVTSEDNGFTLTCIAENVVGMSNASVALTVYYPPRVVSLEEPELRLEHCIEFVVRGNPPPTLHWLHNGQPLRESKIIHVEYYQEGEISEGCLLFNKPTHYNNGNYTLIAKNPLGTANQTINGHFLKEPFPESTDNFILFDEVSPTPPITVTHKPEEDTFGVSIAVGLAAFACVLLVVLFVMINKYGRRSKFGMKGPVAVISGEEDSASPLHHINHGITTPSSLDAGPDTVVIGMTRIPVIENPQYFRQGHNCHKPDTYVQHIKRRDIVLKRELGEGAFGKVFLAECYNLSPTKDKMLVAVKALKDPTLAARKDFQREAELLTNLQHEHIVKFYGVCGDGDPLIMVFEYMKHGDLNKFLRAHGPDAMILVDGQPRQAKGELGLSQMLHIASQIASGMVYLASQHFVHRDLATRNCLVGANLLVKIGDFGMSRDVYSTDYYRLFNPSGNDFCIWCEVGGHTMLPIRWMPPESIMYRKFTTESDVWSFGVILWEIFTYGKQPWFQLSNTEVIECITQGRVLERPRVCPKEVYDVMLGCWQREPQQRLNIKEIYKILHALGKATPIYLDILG

How the values were obtained:
Conditions in all cases: 10 uM
[1] = biological target: High affinity nerve growth factor receptor (Homo sapiens, UniProt P04629)
[2] = biological target: BDNF/NT-3 growth factors receptor (Homo sapiens, UniProt Q16620)
[3] = biological target: NT-3 growth factor receptor (Homo sapiens, UniProt Q16288)

inhibition [1]: > 50%
inhibition [2]: > 50%
inhibition [3]: > 50%
Structure (SMILES): Cc1cn(-c2cc(C(=O)Nc3cccc(Nc4ccc5c(c4)NC(=O)/C5=C\c4ccc[nH]4)c3)cc(C(F)(F)F)c2)cn1
